Assay results as given in US10081660B2, “Polynucleotide, polypeptide with immunosuppressive activity, expression cassette, expression vector, host cell, pharmaceutical composition, methods for producing a polypeptide with immunosuppressive activity and for preventing or treating conditions that require immunosuppression, and use of a …” (FUNDAÇÃO BUTANTAN, priority 2013, dated 2018).

Tested on: HIII mice
Assay: Immunosuppressive activity against soluble antigen (human gamma globulin, HGG), anti-HGG antibodies by ELISA
Assay type: in vivo
Procedure: For the invention's polypeptide immunosuppressive activity analysis, Lineage HIII mice constitutively known as good responder to of antibody production are inoculated, intraperitoneally, and immunized with structurally complex and highly immunogenic antigens, such as sheep erythrocytes, a particulate antigen. The animals' serum is then analyzed regarding its hemagglutination activity: the lower is the hemagglutinating effect; the higher is the immunosuppressive capacity of the evaluated compound. The immunosuppressive activity can also be evaluated against a soluble antigen, such as human gamma globulin (HGG), adsorbed in aluminum hydroxide, and the antibodies titer determined by ELISA.
The immunosuppressive activity of the recombinant polypeptide was also tested for soluble antigens. […] Titers were determined by ELISA and calculated considering the highest dilution of experimental sera whose O.D. (optical density) was five times higher than those obtained for normal serum at the same dilution. […]
The immunosuppressive activity of the synthetic polypeptide P2 (SEQ ID NO: 5) and P6 (SEQ ID NO: 9) was evaluated against HGG, taking into account immunosuppression time after preventive treatment and antigen inoculation. […] O.D. values obtained from the 1:500 dilution were presented herein as average+standard deviation and were statistically analyzed by Student t test. […]

B1: recombinant polypeptide: SEQ ID NO: 2 plus six histidine residues, T7 phage protein 10 portion and enterokinase site; approximately 30 kDa, expressed in E. coli (protein)
chain: MRGSHHHHHHGMASMTGGQQMGRDLYDDDDKDRWGSELFSQKYIELVVVADHGMFTKYNGNLNTIRTRVHEIVNTLNGFYRSLNIHISLTDLEIWSNQDLINVQSAAADTLKTFGEWRERVLLNRISHDNAQLLTAIDLADNTIGIAYTGGMCYPKNSVGIVQDHSPKTLLIAVTMAHELGHNLGMKHDENHCHCSASFCIMPPSLSEGPSYEFSDCSKDYYEMFLTKRKPQCILNKPWYHGIRSLIRLLTKPERKLSWLLPPLSNN
50 μg intraperitoneally, HGG on Al(OH)3 (10 μg/animal) after 0, 24 or 72 hours
  suppression of anti-HGG antibody production: induced in a prophylactic and antigen-specific manner until 24 hours after the treatment
P6 3 μg/animal or recombinant polypeptide 50 μg/animal, HGG in Al(OH)3 after 24 hours
  inhibition of anti-HGG antibody production: inhibition of anti-HGG antibody production
